Measured values: US20260060961A1, “SUBSTITUTED HETEROCYCLES AS RAS INHIBITORS” (Jazz Pharmaceuticals Ireland Limited, priority 2022, published 2026)

Protein sequences, listed by entry. Tags and fused reporters are not part of them. Chains listed by the source or under a name are the forms on record and can include a tag or linker. Residues count along the entry.
UniProt P01116, 1-164 with tags or gaps G12C limits assumed: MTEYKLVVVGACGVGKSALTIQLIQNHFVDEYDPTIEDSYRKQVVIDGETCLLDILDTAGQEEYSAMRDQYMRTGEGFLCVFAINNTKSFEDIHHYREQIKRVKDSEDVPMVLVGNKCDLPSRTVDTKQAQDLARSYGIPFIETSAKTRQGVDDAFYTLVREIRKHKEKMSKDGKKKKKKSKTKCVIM

Biological target: Recombinant human KRAS protein containing the G12C amino acid substitution (Homo sapiens (Human), UniProt P01116, G12C)
Assay: HTRF nucleotide exchange assay, KRAS G12C
Conditions: read-out: KRAS G12C HTRF NEA IC50; 180 minute incubation with compound at room temperature; at least two independent replicates

IC50: 1 to 10 µM
Structure (SMILES): C=CC(=O)N1CC2(CC(c3nc(-c4cnc(OC)s4)c(-c4c(C)ccc5[nH]ncc45)n3C)C2)C1
